The values that follow come from PubChem BioAssay AID1430 (University of Pittsburgh Molecular Library Screening Center, 2008).

Only a part is listed here, and it is no random draw. Some of these compounds have results that are not shown, active ones among them. The source made the active and inactive calls.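 Rule for the calls: active = inhibition of 50% or more in the single-dose primary screen; inactive = inhibition below 50%.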

The test system of the test is hexokinase 1 [Trypanosoma brucei]. As to the kind of experiment: TbHK1 enzyme activity blockers – biochemical, G6PDH-coupled NADH absorbance, MLSCN library, primary screen (AID 1430). Particulars: recombinant TbHK1, G6PDH-coupled NADH A340; at 10 µM; active compounds read high.
As for `CC(C)N1C(=O)CC2(CCN(CCOC(=O)C(O)(c3ccccc3)c3ccccc3)CC2)C1=O`, the inhibition (commonly the relative decrease from the control value, in per cent) is inactive: -4.89%.
In the case of `CCN(CC)CC(C)C(C)OC(=O)C(O)(c1ccccc1)c1ccccc1` (stereo unspecified) it was inactive: -2.92%; in that of `O=C(NCC1(N2CCCCC2)CCCCC1)c1cc([N+](=O)[O-])ccc1Cl`, inactive: -0.158%; in that of `C=CCN1CCN(CCOC(=O)C(O)(c2ccccc2)c2ccccc2)CC1`, inactive: -12.6%.
In the case of `CCN1CCCC(OC(=O)C2(O)c3ccccc3C=Cc3ccccc32)C1` (stereo unspecified) it was inactive: 7.92%; in that of `CN(C)C1CCCC1OC(=O)C(O)(c1ccccc1)c1ccccc1` (stereo unspecified), inactive: 4.33%.
The figure for `Cc1ccccc1C(=O)NCC1(N2CCCCC2)CCCCC1` is inactive: 7.71%; for `COc1cccc(C(=O)NCC2(N3CCCCC3)CCCCC2)c1` it is inactive: 0.466%; for `COc1ccc(Br)c(C(=O)NCC2(N3CCCCC3)CCCCC2)c1` it is inactive: -1.55%.
On to `CN(C)c1cccc(C(=O)NCC2(N(C)C)CCCCC2)c1`, for which the inhibition was inactive: -0.883%.
The figure for `O=C(OC1CN2CCC1CC2)C(CO)(c1ccccc1)c1ccccc1` (stereo unspecified) is inactive: 1.94%.
